Results published in patent US10117912B2 (priority 2013, dated 2018).

System: MDCKII-wt monolayer membrane

SMILES | conversion of prodrug to drug by endogenous enzyme (fosphenytoin without added enzyme, after 3 hr) | appearance of prodrug on the basal side (fosphenytoin without enzyme) | CLd, membrane's clearance (permeability-area product) (phenytoin saturated solution, no enzyme, pH 7.4, 32° C.) [mL/h]
O=C1NC(c2ccccc2)(c2ccccc2)C(=O)N1COP(=O)(O)O [fosphenytoin, Fosphenytoin disodium] | less than 30% | did not appear on the basal side | –
O=C1NC(=O)C(c2ccccc2)(c2ccccc2)N1 [phenytoin] | – | – | 0.0538 ± 0.0075
